Chains of the proteins cited; added tags and fusions are not shown.
UniProt P31652, whole entry: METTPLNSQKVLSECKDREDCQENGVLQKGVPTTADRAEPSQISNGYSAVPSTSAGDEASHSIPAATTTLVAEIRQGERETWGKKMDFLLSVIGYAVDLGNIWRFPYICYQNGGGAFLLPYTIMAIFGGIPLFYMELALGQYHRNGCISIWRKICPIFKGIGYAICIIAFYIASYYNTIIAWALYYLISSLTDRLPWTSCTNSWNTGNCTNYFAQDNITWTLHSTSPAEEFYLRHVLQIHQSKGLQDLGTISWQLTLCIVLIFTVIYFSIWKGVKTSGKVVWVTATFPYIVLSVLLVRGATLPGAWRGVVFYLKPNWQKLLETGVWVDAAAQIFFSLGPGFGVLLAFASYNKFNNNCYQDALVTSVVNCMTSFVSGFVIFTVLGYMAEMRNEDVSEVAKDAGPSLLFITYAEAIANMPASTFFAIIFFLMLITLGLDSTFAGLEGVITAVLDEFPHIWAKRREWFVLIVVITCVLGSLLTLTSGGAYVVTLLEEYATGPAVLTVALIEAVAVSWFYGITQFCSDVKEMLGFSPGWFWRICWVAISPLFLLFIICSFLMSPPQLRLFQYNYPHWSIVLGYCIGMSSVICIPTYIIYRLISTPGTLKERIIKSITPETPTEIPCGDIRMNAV

In patent publication US9206167B2, “Piperazine-substituted benzothiophenes for treatment of mental disorders” (Otsuka Pharmaceutical Co., Ltd., priority 2005, dated 2015):

Target: Serotonin (5-HT) uptake (Rattus norvegicus (Rat), UniProt P31652)
Assay: Serotonin (5-HT) uptake inhibitory activity by rat brain synaptosome
Type: biochemical
Conditions: test compound 300 nM, rat frontal cortex synaptosome

CC1CN(c2cccc3sccc23)CCN1CCCCOc1ccc2c(c1)NC(=O)CC2 (stereo not drawn)
Serotonin uptake inhibitory ratio (%) (300 nM) (tested form: dihydrochloride): 95.7%

CC1CN(CCCOc2ccc3c(c2)NC(=O)CC3)CCN1c1cccc2sccc12 (stereo not drawn)
Serotonin uptake inhibitory ratio (%) (300 nM): 73.0%

CC1CN(c2cccc3sccc23)CCN1CCCCOc1ccc2ccc(=O)[nH]c2c1 (stereo not drawn)
Serotonin uptake inhibitory ratio (%) (300 nM) (tested form: hydrochloride): 96.3%
